The test system of experiment [1] is IL-2 stimulated STAT5 phosphorylation in Tall-1 human T cell line. The experiment is described as follows: Inhibition of IL-2 stimulated pSTAT5 in Tall-1 T cells. Format: cell-based. To be noted: TALL-1, read-out: Tall-1 pIC50 (converted). Here is the method: Assay 2: Inhibition of IL-2 Stimulated pSTAT5 in Tall-1 T Cells
The potency of test compounds for inhibition of interleukin-2 (IL-2) stimulated STAT5 phosphorylation was measured in the Tall-1 human T cell line (DSMZ) using AlphaLisa. Because IL-2 signals through JAK1/3, this assay provides a measure of JAK1/3 cellular potency.
Phosphorylated STAT5 was measured via the AlphaLISA SureFire Ultra pSTAT5 (Tyr694/699) kit (PerkinElmer).
Human T cells from the Tall-1 cell line were cultured in a 37° C., 5% CO2 humidified incubator in RPMI (Life Technologies) supplemented with 15% Heat Inactivated Fetal Bovine Serum (FBS, Life Technologies), 2 mM Glutamax (Life Technologies), 25 mM HEPES (Life Technologies) and 1×Pen/Strep (Life Technologies). […] Phosphorylated STAT5 was measured via the pSTAT5 AlphaLisa kit (PerkinElmer). […] Luminescence was measured with excitation at 689 nm and emission at 570 nm using an EnVision plate reader (PerkinElmer) under green filtered <100 lux light.
To determine the inhibitory potency of test compounds in response to IL-2, the average emission intensity of beads bound to pSTAT5 was measured in a human T cell line. IC50 values were determined from analysis of the inhibition curves of signal intensity versus compound concentration. Data are expressed as pIC50 (negative decadic logarithm IC50) values (mean±standard deviation).

For experiment [2], the system named is TSLP-evoked TARC release in human peripheral blood mononuclear cells. The experiment is described as follows: Inhibition of TSLP-evoked TARC release in human peripheral blood mononuclear cells. To be noted: PBMC, 48 h, read-out: pIC50 ± st. dev., inhibition of TSLP-evoked TARC release (converted). It is filed as cell-based. From the text: Assay 4: Inhibition of TSLP-Evoked TARC Release in Human Peripheral Blood Mononuclear Cells
Thymic stromal lymphopoietin (TSLP) and thymus and activation-regulated chemokine (TARC) are overexpressed in asthmatic airways, and correlate with disease severity. In the lungs, TSLP may be released by bronchial epithelial cells in response to allergens and viral infections. TSLP signals through an IL-7Rα/TSLPR heterodimer found in a broad range of tissues and cell types, including epithelial cells, endothelial cells, neutrophils, macrophages, and mast cells. […]
The potencies of the test compounds were measured for inhibition of TARC release. […]
Following stimulation, the cell culture supernatants were harvested and TARC levels were detected by enzyme-linked immunosorbent assay (ELISA), using Human CCL17/TARC Quantikine ELISA Kit (R&D Systems # DDN00) according to the manufacturer's instructions.
For dose response analysis, the log [test compound (M)] was plotted versus the percent response values for each donor, and IC50 values were determined using a nonlinear regression analysis with GraphPad Prism Software using the 4-parameter sigmoidal dose-response algorithm with variable slope. Data are expressed as mean pIC50 (negative decadic logarithm IC50) values calculated from pIC50 values of individual donors and rounded to one decimal place.

With `CCc1cc(O)ccc1-c1ccc2c(-c3nc4c([nH]3)CN(C)[C@H](C(=O)N3CCN(C)C[C@@H]3C)C4)n[nH]c2c1` [Example 3, ((S)-2,4-dimethylpiperazin-1-yl)((S)-2-(6-(2-ethyl-4-hydroxyphenyl)-1H-indazol-3-yl)-5-methyl-4,5,6,7-tetrahydro-3H-imidazo[4,5-c]pyridin-6-yl)methanone], the IC50 was 1.58 nM in experiment [1] and 50.1 nM in experiment [2].

Source of the values: patent publication US10844057B2, “Process for preparing JAK inhibitors and intermediates thereof” (priority 2018, dated 2020).
